{
  "sequences": {"note": "Chains of the proteins cited; added tags and fusions are not shown.", "UniProt P19327, whole entry": "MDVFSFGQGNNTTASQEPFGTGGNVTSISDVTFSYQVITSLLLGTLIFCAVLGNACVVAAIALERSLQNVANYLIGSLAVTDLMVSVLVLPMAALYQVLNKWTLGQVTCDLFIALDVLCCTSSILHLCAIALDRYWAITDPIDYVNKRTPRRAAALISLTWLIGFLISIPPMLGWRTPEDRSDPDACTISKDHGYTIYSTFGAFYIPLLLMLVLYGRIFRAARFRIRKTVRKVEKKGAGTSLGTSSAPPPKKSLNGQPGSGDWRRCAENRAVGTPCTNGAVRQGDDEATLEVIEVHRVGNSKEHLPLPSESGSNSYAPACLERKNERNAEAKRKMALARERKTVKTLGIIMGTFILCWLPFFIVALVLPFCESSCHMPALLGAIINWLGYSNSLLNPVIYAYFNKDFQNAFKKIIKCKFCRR"},
  "source": "patent US6894053B2",
  "about": "“Serotonergic agents with long-acting in vivo effects” (Wyeth, priority 2001, dated 2005)",
  "molecular_target": "T1, 5-HT1A (Rattus norvegicus, UniProt P19327)",
  "T1 construct": "from tissue; host or cells: rat brain (cortex and hippocampus membranes in the ex vivo assay; whole animal in the behavioural model)",
  "assay": "Fixed Responding Model (fixed-ratio 30 food schedule), antagonism of 8-OH-DPAT",
  "assay_type": "in vivo",
  "conditions": "8-OH-DPAT 1 mg/kg sc alone",
  "description": "The ability of the compounds of this invention to function in vivo as 5-HT1A antagonists was assessed in rats using a Fixed Responding Model (Blackman, D., in, “Operant Conditioning: An Experimental Analysis of Behavior”, J. Butcher, Ed., Methuen and Co., Ltd., London). In this model rats are trained to respond (lever pressing) under a fixed-ratio 30 schedule of food presentation in order to receive a food pellet reinforcer. Administration of the 5-HT1A agonist 8-OH-DPAT reduces the response rate observed from administration of vehicle (Table 3). 5-HT1A antagonist activity is assessed by determining the test compound's ability to antagonize this decrease in response rate induced by administration of the agonist.\nThis long-lasting effect makes the compounds of this invention especially useful in the treatment of chronic diseases such as those described above. Additionally, the long-lasting effects of the compounds of this invention make them useful as biological tools for the study of the role and effects of 5-HT1A antagonism both in vitro and in vivo.",
  "data": [
    {"smiles": "CCCN(CCC)C1CCc2cccc(O)c2C1", "note": "(stereo not shown) [Example 8-OH-DPAT, 8-OH-DPAT, reference compound]", "values": [
      {"measurement": "Response Rate", "result": "0.5 ± 0.2", "unit": "responses/second"}
    ]}
  ]
}
